Values quoted from earlier work, collected in US20220380431A1, “GLYCOPEPTIDE ANALOGS OF SECRETIN FAMILY PEPTIDES” (ARIZONA BOARD OF REGENTS ON BEHALF OF THE UNIVERSITY OF …, priority 2017, published 2022).

Sequences of proteins named here, by UniProt entry; tags and fusion partners are left off. Residues count along the entry.
UniProt P32241, 31-457: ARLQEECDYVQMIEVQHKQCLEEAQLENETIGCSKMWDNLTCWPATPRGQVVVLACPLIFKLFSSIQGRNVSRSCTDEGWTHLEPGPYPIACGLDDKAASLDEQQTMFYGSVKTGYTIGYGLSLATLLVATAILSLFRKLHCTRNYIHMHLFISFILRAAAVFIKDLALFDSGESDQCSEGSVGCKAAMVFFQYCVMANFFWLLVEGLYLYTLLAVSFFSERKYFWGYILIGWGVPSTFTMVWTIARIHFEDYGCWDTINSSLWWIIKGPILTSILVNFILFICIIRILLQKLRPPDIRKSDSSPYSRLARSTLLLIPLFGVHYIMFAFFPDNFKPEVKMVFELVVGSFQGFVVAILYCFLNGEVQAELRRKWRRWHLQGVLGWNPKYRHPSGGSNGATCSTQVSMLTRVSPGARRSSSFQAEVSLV

Assays:
Conditions in all cases: background statement; cited from earlier work
PAC1 = biological target: T1, PAC1 (Homo sapiens, UniProt P41586)
T1 sequence (P41586 21-468): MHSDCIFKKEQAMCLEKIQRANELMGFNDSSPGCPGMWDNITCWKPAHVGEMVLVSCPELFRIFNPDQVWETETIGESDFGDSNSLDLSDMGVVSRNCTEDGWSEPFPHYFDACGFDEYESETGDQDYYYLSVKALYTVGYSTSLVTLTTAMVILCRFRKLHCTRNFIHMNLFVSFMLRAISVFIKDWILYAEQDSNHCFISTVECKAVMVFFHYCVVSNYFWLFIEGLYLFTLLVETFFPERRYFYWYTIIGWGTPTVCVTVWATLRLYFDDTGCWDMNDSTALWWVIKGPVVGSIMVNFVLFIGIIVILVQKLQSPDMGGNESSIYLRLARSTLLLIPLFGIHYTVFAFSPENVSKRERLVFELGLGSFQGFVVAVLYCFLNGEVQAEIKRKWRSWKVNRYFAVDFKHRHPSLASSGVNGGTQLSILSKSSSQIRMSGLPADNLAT

VPAC1 = VPAC1 (Homo sapiens, UniProt P32241)
VPAC2 = biological target: T2, VPAC2 (Homo sapiens, UniProt P41587)
T2 sequence (P41587 24-438): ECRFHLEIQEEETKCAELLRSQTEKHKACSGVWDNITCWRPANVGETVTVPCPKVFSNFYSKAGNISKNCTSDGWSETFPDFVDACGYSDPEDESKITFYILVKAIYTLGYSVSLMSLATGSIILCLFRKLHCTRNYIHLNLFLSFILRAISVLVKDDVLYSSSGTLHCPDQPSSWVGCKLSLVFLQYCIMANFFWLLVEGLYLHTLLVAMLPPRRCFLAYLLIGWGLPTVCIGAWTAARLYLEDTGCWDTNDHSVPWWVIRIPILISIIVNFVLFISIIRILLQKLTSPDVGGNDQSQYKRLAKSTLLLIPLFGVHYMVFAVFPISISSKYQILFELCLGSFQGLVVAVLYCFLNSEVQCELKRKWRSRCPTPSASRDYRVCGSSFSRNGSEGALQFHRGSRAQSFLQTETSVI

HSDAVFTDNY10TRLRKQMAVK20KYLNSILN [VIP]
activity at the PAC1 receptor relative to PACAP (PAC1): several orders of magnitude less active | activation of VPAC1 receptor relative to PACAP (VPAC1): equally to the PACAP ligand | activation of VPAC2 receptor relative to PACAP (VPAC2): equally to the PACAP ligand
